## AlphaSeq binding of Ab-91 heavy chain variants to a spike HR2 peptide

The measurements come from Engelhart et al. 2022 (doi:10.1038/s41597-022-01779-4) through the FLAb antibody collection.

Antigen: PDVDLGDISGINAS, a 14-residue peptide of the SARS-CoV-2 spike HR2 region.

The variants keep the light chain, the linker and the frameworks of Ab-91 (scFv order VL, three GGGGS repeats, VH).
VL: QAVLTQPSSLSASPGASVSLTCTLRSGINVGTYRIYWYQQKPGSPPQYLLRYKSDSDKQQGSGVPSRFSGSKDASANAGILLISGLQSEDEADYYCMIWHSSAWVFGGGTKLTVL
VH: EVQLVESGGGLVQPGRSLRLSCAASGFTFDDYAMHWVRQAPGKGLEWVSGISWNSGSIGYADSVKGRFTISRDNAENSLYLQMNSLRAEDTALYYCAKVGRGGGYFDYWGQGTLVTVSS

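Phage display of a naive human antibody library on the peptide gave the parent. In library AAYL51, one, two or three CDR residues were substituted; doubles and triples were drawn at random. In AlphaSeq, yeast of one mating type display the scFv and yeast of the other type display the target. Pairs that bind mate more often; barcode pairs of the diploids are counted by sequencing. Scores were corrected for input abundance and mapped to Kd with protein pairs of known affinity run in the same pool. Mating was done three times.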

Each variant is given by its three heavy chain CDRs, as the data file delimits them; those of the parent are GFTFDDYAMH, GISWNSGSIGYADSVK, VGRGGGYFDY. Every variant below is changed at H35 of the VH (sequential numbering). Values are apparent Kd, the geometric mean of the replicates that gave a signal; lower means stronger binding. A pair that was not seen in any replicate is written "nd"; this usually means weak binding, but a binder can also be missed.

- GFTFDDYAMK / GISWNSGSIGYADSDK / VGRGGGLFDY: 150 µM (1 of 3 replicates; controls 2 of 9)
- GFTFDDYSMW / GISWNSGSIGQADSVK / VGRGGGYFDY: 31 µM (2 of 3 replicates; controls 2 of 9)
- GFTFDDWAMM / GISWNSGSIGYADSVK / VGRGGGYFDY: nd (0 of 3 replicates; controls 0 of 9)
- GFTFDDYAMR / GISWNSGDIGYAQSVK / VGRGGGYFDY: nd (0 of 3 replicates; controls 0 of 9)
- GFTFDDYAMW / GISWNSGSIGYADDVK / VSRGGGYFDY: nd (0 of 3 replicates; controls 1 of 9)
- GFTFDDYATF / GISWNYGSIGYADSVK / VGRGGGYFDY: 25 µM (2 of 3 replicates; controls 0 of 9)
- GFTFDDYAMG / GISWNSLSIGYADSVK / VGRGGGGFDY: 78 µM (2 of 3 replicates; controls 1 of 9)
- GFTFDMYAMM / GISWNSGSIGYADSVK / VGRGGGYFDY: nd (0 of 3 replicates; controls 0 of 9)
- GFTFDDYAMY / GISWNSGSIGCADSVK / VGRGGGYFDY: nd (0 of 3 replicates; controls 2 of 9)
- GFTFDDYAMF / GISWNSGSIGYADSVK / VGRGGGYFDY: nd (0 of 3 replicates; controls 0 of 9)
- GFTFDDYAMK / GISWNSGSIGYAMSVM / VGRGGGYFDY: 56 µM (2 of 3 replicates; controls 0 of 9)
- GFTFDDYAMD / GISWNSGSIGWADSVK / VGRGGGYFPY: 23 µM (1 of 3 replicates; controls 2 of 9)
- GRTFDDWAMC / GISWNSGSIGYADSVK / VGRGGGYFDY: nd (0 of 3 replicates; controls 1 of 9)
- GFTYDDYAMQ / GISWNVGSIGYADSVK / VGRGGGYFDY: nd (0 of 3 replicates; controls 1 of 9)
- GFVFDDYGMR / GISWNSGSIGYADSVK / VGRGGGYFDY: nd (0 of 3 replicates; controls 0 of 9)
- GFTFDFYAMY / GISWNSGSIGYADSVK / VGRGGGYFDY: 440 µM (2 of 3 replicates; controls 3 of 9)
- GFTFDDYAMY / GISRNSGSIGYADSVK / VGRGGGYFGY: 76 µM (1 of 3 replicates; controls 1 of 9)
- GFTFDDYAMS / GISWNSGSIGYAISVK / VVRGGGYFDY: 760 µM (1 of 3 replicates; controls 3 of 9)
- GFTFDDYATP / GISYNSGSIGYADSVK / VGRGGGYFDY: nd (0 of 3 replicates; controls 1 of 9)
- GFTFEDYAMA / GISWNSGSIGYADSVK / VGRGGGYFDY: nd (0 of 3 replicates; controls 4 of 9)
- KFTFDDYAMS / GISWNSGSIGYADSVK / VGRGGGYYDY: nd (0 of 3 replicates; controls 0 of 9)
- GFTFDDYAMM / GISWNSGSIGYADSVK / VGRGEGYFDY: 47 µM (3 of 3 replicates; controls 3 of 9)
- GFTFDDYAMK / GISWNSGSMGYMDSVK / VGRGGGYFDY: 200 nM (2 of 3 replicates; controls 0 of 9)
- FFTFDDYAMN / GISWNSGFIGYADSVK / VGRGGGYFDY: nd (0 of 3 replicates; controls 1 of 9)
- GFTFDDYYMQ / GISWNKGSIGYADSVK / VGRGGGYFDY: 92 µM (1 of 3 replicates; controls 4 of 9)
- GFTFDDYAMI / GISWNSGSIGYADSVK / VGTGGGMFDY: 12 µM (1 of 3 replicates; controls 3 of 9)
- GFTFDDYAMR / TISWNSGSIGYADSVK / VGRGGGYFDY: 17 µM (1 of 3 replicates; controls 2 of 9)
- GFTFDDYANQ / GISWNSGSIGYADSVK / VGRGGGYFDC: nd (0 of 3 replicates; controls 0 of 9)
- GFTFDDYDME / GISWNSGSIGYADSVK / VGRGLGYFDY: 550 µM (3 of 3 replicates; controls 5 of 9)
- GFTFDDYAMK / GISWNSGSIGYADSVK / VGLGKGYFDY: 12 µM (1 of 3 replicates; controls 1 of 9)
- GFTFDDYAMM / GISYNSGSIGDADSVK / VGRGGGYFDY: nd (0 of 3 replicates; controls 1 of 9)

Repeated from above, the 2 best binders with a signal in all replicates:

{"CDR-H1": "GFTFDDYAMM", "CDR-H2": "GISWNSGSIGYADSVK", "CDR-H3": "VGRGEGYFDY", "apparent Kd": "47 µM", "replicates with signal": "3 of 3", "control signals": "3 of 9"}
{"CDR-H1": "GFTFDDYDME", "CDR-H2": "GISWNSGSIGYADSVK", "CDR-H3": "VGRGLGYFDY", "apparent Kd": "550 µM", "replicates with signal": "3 of 3", "control signals": "5 of 9"}

In this assay the parent's reference entry averaged 72 nM; its copy inside this library read 7.5 nM. Empty control strains, which show no peptide, gave a signal in 21% of pairings with library AAYL51; the median was 34 µM and 95% of these signals were weaker than 1.8 µM. No background was subtracted. The control count says in how many pairings with the empty strains this scFv gave a signal.